Earlier results, collected in patent publication US10851096B2, “Aryl and heteroaryl amides for use as anti-proliferative, anti-thrombotic, and anti-viral agents” (Rutgers, The State University of New Jersey, priority 2016, dated 2020).

Biological target: T1, Mer (Homo sapiens, UniProt Q12866)
T1 sequence (Q12866 21-999): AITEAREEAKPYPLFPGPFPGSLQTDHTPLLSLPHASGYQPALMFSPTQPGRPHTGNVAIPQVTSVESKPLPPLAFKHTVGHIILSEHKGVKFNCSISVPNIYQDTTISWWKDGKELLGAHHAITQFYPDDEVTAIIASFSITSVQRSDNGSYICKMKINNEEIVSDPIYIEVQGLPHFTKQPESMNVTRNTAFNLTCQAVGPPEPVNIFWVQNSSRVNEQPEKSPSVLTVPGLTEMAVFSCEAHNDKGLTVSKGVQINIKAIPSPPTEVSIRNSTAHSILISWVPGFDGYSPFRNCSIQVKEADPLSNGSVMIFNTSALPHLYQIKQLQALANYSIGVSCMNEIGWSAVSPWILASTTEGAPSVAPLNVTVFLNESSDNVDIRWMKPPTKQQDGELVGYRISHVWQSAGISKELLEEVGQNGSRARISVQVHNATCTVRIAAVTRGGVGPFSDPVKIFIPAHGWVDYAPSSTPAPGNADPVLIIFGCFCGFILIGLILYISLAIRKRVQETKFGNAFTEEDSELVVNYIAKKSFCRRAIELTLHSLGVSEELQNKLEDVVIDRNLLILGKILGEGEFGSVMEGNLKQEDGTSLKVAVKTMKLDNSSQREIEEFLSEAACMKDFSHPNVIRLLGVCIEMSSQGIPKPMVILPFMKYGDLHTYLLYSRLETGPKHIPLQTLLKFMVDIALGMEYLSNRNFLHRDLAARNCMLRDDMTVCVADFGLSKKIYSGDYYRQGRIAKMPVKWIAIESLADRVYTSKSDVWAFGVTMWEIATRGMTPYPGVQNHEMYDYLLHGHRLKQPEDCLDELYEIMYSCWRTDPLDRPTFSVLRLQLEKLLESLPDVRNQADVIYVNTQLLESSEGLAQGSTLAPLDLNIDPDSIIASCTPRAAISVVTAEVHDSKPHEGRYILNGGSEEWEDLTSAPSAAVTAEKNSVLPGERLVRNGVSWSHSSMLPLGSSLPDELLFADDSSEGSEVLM
Settings: cited from earlier work

Question: Which IC50 does the source give for `Nc1nc(Nc2ccc3c(c2)CC[C@@H](N2CCCC2)CC3)nn1-c1cc2c(nn1)-c1ccccc1CCC2` [BGB324] here?
Answer: 700 nM
